Laboratory results as given in patent US9873702B2, “Heterocyclic compounds as biogenic amine transport modulators” (Southern Research Institute, priority 2014, dated 2018).

By UniProt entry, the sequences of proteins in these tests, tags left out.
UniProt P23977, whole entry: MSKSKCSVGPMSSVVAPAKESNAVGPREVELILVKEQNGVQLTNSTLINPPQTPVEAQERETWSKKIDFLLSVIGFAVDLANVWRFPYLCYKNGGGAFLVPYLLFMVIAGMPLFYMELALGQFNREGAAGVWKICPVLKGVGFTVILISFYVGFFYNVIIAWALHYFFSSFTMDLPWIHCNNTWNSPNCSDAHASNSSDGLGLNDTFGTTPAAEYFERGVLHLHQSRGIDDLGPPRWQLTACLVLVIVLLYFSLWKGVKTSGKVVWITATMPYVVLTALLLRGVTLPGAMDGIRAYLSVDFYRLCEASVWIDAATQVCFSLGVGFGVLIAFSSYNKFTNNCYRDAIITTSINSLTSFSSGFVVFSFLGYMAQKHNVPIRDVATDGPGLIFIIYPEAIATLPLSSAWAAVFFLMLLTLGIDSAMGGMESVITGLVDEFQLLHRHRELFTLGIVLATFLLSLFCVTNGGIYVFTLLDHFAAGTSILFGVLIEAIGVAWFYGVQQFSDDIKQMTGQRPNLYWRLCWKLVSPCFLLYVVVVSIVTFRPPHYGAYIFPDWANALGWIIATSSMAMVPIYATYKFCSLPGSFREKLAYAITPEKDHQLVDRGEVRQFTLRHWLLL

Molecular target: dopamine transporter (DAT) (Rattus norvegicus, UniProt P23977)
Experiment: Dopamine reuptake ([^3H]dopamine uptake) inhibition in rat brain synaptosomes
Settings: rat caudate synaptosomes, 5 nM [^3H]dopamine

Compound: Cc1cc2nccn2c(C)c1-c1nc(NCC(c2ccccc2)c2ccccc2)c2ccccc2n1
- DA Uptake Emax (% I ± SD) (maximal inhibition from dose-response fit): 106 ± 4 % I
- EC50 (read-out: DA Uptake EC50 (nM ± SD), 15 min, 25° C., three experiments pooled): 543 nM
